Literature values as cited in paper PMC6191370.

Amino acid sequences for entries named in this document (tags omitted). Residues count along the entry.
UniProt P01589, 22-240, chain 1 of 3: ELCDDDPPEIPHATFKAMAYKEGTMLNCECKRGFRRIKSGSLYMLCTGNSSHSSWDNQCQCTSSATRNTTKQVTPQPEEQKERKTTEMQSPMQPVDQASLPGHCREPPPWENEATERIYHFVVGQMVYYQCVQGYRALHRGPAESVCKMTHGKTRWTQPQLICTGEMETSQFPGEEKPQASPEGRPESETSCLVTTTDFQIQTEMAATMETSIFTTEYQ
UniProt P60568, 21-153: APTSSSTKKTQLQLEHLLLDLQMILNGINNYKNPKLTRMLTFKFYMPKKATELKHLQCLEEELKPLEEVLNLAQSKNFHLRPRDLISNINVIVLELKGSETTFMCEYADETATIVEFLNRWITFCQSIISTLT

Target: high-affinity IL-2R (alpha/beta/gamma chains) (Homo sapiens) (UniProt P01589)

## IL-2 (from UniProt P60568)
  Kd: 0.01 nM
